What was measured:
[1] = molecular target: T1, Delta-type opioid receptor (Homo sapiens, UniProt P41143); assay: Binding affinity for delta opioid receptor
[2] = molecular target: T1, Delta-type opioid receptor; assay: Effective concentration against stimulation of [35S]GTP-gamma-S, binding in CHO cells transfected with the human opioid receptor delta 1
[3] = molecular target: Mu-type opioid receptor (Homo sapiens, UniProt P35372); assay: Binding affinity for mu opioid receptor

Sequences of proteins named here, by UniProt entry; tags and fusion partners are left off.
UniProt P41143, whole entry: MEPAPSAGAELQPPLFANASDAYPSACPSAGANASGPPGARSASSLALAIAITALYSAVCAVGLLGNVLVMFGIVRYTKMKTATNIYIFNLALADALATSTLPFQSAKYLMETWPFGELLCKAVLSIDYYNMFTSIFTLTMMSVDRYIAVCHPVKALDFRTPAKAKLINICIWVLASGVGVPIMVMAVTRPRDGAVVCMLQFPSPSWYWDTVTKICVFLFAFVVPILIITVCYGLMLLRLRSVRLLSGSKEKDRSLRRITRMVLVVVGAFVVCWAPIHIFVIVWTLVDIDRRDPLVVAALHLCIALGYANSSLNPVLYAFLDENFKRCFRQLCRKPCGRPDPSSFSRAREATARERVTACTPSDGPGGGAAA
UniProt P35372, whole entry: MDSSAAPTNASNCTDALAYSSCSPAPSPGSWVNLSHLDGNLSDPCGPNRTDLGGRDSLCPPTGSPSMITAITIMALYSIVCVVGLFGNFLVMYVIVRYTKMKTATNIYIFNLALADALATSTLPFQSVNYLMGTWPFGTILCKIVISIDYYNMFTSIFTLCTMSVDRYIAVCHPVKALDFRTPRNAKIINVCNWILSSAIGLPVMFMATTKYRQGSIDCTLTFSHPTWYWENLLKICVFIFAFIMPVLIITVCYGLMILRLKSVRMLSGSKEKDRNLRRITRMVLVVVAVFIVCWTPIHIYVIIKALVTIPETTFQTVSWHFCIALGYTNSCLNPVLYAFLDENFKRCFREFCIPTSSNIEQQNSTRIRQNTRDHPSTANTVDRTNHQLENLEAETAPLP

| SMILES | Ki [1] | EC50 [2] | Ki [3] |
| --- | --- | --- | --- |
| CCN(CC)C(=O)c1ccc(N(c2ccccc2)C2C[C@H]3CC[C@@H](C2)N3)cc1 (some centres undefined) | 0.3 nM | 12 nM | 5040 nM |
| C=CCN1CCC(N(c2ccccc2)c2ccc(C(=O)N(CC)CC)cc2)CC1 | 24 nM | 21 nM | 11600 nM |
| C=CCN1[C@@H]2CC[C@H]1CC(N(c1ccccc1)c1ccc(C(=O)N(CC)CC)cc1)C2 (some centres undefined) | 0.5 nM | 12 nM | 3650 nM |

Source: ChEMBL document CHEMBL1148435, “N,N-dialkyl-4-[(8-azabicyclo[3.2.1]-oct-3-ylidene)phenylmethyl]benzamides, potent, selective delta opioid agonists” (Bioorg Med Chem Lett, 2004)
